The values below are quoted from earlier work in publication PMC11799299.

This series addresses eNOS 493-512 (Bos taurus) (UniProt P29473).

In the case of calmodulin (from UniProt P0DP23), the Kd (as a rule, the free concentration of one partner at which half of the binding sites on the other are occupied at equilibrium, for simple one-to-one binding) is 0.2 nM.
